Assay: Body weight change of mice after URT (intranasal, 10 μl) treatment
Settings: Study 1B: dose range 0.005 nmoles-5 nmoles, then Udorn challenge

## PEG-[Arg]4-Ser-Ser-Pam2Cys
  weight loss relative to baseline: no significant weight loss
